Apparent affinities of Ab-95 variants for a coronavirus HR2 peptide

Binding partner: SARS-CoV-2 spike HR2 peptide, sequence PDVDLGDISGINAS.

Ab-95 is the parent antibody, in scFv form: VH, then three GGGGS repeats, then VL. The heavy chain is unchanged in all variants.
VH: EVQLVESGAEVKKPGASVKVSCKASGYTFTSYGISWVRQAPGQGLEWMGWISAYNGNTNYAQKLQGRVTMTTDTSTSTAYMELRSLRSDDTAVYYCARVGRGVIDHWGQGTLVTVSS
VL: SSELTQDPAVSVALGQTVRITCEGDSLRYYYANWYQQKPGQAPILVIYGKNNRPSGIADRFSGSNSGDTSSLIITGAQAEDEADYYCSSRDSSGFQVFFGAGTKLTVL

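Variants in AAYL52 differ from the parent at up to three CDR positions; double and triple changes were sampled at random. Affinity was read by AlphaSeq, a pooled yeast mating assay with surface-displayed partners. The frequency of each diploid, read from paired DNA barcodes, reflects how well the two displayed proteins bind. A regression on co-assayed BCL2-family reference pairs converts the normalised counts of each replicate to an apparent Kd. There are three technical replicates.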

Changes read parent residue, position, new residue, counted from the first residue of the VL shown.
Affinities are written as log10 Kd with Kd in nM; a lower number is a better binder.
Averages over replicates are reported, and they cover detected replicates only.
"nd" means that the variant was in the library but no mating with the target was seen in that replicate; the authors take this as a sign of poor binding, and no number exists.

changes	log10 Kd (nM) by replicate	mean, log10 nM	signal with controls
S88M/D91M/V97Y	nd nd nd	nd	0/9
D25V/S55P/S93N	2.70 2.64 3.28	2.87	3/9 (3.70)
Y31G/S92K/F95C	1.89 1.58 1.39	1.62	5/9 (3.33)
R53N/P54L/S88V	3.83 nd 2.27	3.05	3/9 (3.29)
R28K/Y30R/S92Q	1.31 1.02 0.55	0.96	4/9 (4.17)
E23F/R28S/Y29S	2.73 2.98 2.60	2.77	3/9 (4.12)
L27W/N33D/N52G	3.61 nd nd	3.61	6/9 (4.09)
D25S/L27N	3.13 2.75 3.53	3.14	3/9 (3.38)
G49K/S93G/G94C	nd nd 4.10	4.10	5/9 (3.86)
N52D/R90Q/Q96R	1.93 2.31 1.62	1.95	1/9 (3.60)
S26K/S89N/V97S	3.47 nd nd	3.47	1/9 (4.94)
E23Q/N33E/S89H	4.29 nd 3.16	3.72	1/9 (4.15)
S26M/Y30T/S89Y	nd 4.12 nd	4.12	0/9
P54K	3.05 2.98 2.37	2.80	6/9 (3.59)
Y31I/D91V/S93K	2.94 3.11 nd	3.03	3/9 (3.61)
L27W/Y30K/N33P	nd nd 3.81	3.81	3/9 (3.65)
G94M/V97Q	nd nd nd	nd	0/9
R53A/D91Y	3.72 5.49 nd	4.61	3/9 (4.42)
Y31I/S55W	2.91 3.27 3.35	3.18	5/9 (3.56)
R28E/R90T/F95P	nd nd nd	nd	0/9
G49W/R90L/G94K	nd nd nd	nd	2/9 (3.25)
P54M/S55W/S88Q	nd nd nd	nd	3/9 (3.36)
R28Y/Q96L/F98W	nd 4.07 4.03	4.05	3/9 (4.32)
R28V/A32H/S93R	3.50 nd nd	3.50	1/9 (3.88)
R53Y/Q96W/V97M	3.91 4.51 nd	4.21	5/9 (3.91)
A32Y/N33I/P54L	3.05 3.04 2.89	2.99	4/9 (3.75)
A32T/N52I/R90Q	4.61 nd 3.70	4.15	2/9 (4.55)
E23Q/Y30S/N33R	1.43 1.37 0.88	1.23	2/9 (4.74)
N33S/K50Q/S55I	2.62 3.46 2.46	2.85	0/9
P54M/S55A/S89E	2.63 2.57 2.74	2.64	3/9 (3.62)
R28L/N52V/V97I	2.84 2.87 3.21	2.98	3/9 (3.82)
D25K/Y30G/S55P	1.04 1.12 0.51	0.89	7/9 (4.05)
G24R/D25W/Q96L	4.50 3.52 4.44	4.15	5/9 (4.01)
Y31H/Q96R/F98E	1.74 1.89 1.81	1.81	6/9 (4.25)
E23P/D91S/V97F	3.75 5.28 3.91	4.32	3/9 (3.66)
N51P/Q96D	5.05 4.46 nd	4.76	2/9 (3.43)
Y31N/A32M/R53W	5.07 nd nd	5.07	2/9 (3.79)
S88E/S92T/G94Y	2.66 2.70 1.85	2.40	6/9 (4.16)
K50W/S55K/S93P	nd nd nd	nd	1/9 (3.61)
K50S/R90H	2.78 3.12 2.52	2.81	2/9 (4.50)
K50T/S55C/S93M	3.54 nd 2.83	3.19	4/9 (3.02)
Y29W/S89W/R90E	3.97 nd nd	3.97	2/9 (4.23)
L27E/S88N/G94I	2.95 nd 4.42	3.69	3/9 (3.83)
R28E/S89F	4.36 2.75 2.53	3.21	1/9 (3.58)
S55Q/S89L	1.41 1.54 0.95	1.30	2/9 (3.84)

Extract of 6 entries:

changes	log10 Kd (nM) by replicate	mean, log10 nM	signal with controls
D25S/L27N	3.13 2.75 3.53	3.14	3/9 (3.38)
R28K/Y30R/S92Q	1.31 1.02 0.55	0.96	4/9 (4.17)
L27W/N33D/N52G	3.61 nd nd	3.61	6/9 (4.09)
P54M/S55W/S88Q	nd nd nd	nd	3/9 (3.36)
L27E/S88N/G94I	2.95 nd 4.42	3.69	3/9 (3.83)
R53A/D91Y	3.72 5.49 nd	4.61	3/9 (4.42)

As a blank, each scFv also met three strains without target: over library AAYL52, 28% of these pairings were detected, typically at 3.91 and seldom below 2.90. For each scFv, signals with the empty controls are counted beside the result, with their mean in brackets.
For reference, the parent read 2.31 as the reference entry and 2.25 as a member of this library.

Data: MIT Lincoln Laboratory AlphaSeq set, Engelhart et al. 2022, doi:10.1038/s41597-022-01779-4, as distributed in FLAb.